Measurements as given in PubChem BioAssay AID651957 (The Scripps Research Institute Molecular Screening Center, 2012).
Only a part is listed here, and it is no random draw. Activity calls are given as the source filed them.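 Rule for the calls: active = inhibition above the mean inhibition of all tested compounds plus 3 SD, set per campaign (cut at about 52% in these data); inactive = the rest.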

Protein sequences, listed by entry. Tags and fused reporters are not part of them. Lines headed by an entry give the natural chain unless they say otherwise; changes in a name come on top.
UniProt Q15596: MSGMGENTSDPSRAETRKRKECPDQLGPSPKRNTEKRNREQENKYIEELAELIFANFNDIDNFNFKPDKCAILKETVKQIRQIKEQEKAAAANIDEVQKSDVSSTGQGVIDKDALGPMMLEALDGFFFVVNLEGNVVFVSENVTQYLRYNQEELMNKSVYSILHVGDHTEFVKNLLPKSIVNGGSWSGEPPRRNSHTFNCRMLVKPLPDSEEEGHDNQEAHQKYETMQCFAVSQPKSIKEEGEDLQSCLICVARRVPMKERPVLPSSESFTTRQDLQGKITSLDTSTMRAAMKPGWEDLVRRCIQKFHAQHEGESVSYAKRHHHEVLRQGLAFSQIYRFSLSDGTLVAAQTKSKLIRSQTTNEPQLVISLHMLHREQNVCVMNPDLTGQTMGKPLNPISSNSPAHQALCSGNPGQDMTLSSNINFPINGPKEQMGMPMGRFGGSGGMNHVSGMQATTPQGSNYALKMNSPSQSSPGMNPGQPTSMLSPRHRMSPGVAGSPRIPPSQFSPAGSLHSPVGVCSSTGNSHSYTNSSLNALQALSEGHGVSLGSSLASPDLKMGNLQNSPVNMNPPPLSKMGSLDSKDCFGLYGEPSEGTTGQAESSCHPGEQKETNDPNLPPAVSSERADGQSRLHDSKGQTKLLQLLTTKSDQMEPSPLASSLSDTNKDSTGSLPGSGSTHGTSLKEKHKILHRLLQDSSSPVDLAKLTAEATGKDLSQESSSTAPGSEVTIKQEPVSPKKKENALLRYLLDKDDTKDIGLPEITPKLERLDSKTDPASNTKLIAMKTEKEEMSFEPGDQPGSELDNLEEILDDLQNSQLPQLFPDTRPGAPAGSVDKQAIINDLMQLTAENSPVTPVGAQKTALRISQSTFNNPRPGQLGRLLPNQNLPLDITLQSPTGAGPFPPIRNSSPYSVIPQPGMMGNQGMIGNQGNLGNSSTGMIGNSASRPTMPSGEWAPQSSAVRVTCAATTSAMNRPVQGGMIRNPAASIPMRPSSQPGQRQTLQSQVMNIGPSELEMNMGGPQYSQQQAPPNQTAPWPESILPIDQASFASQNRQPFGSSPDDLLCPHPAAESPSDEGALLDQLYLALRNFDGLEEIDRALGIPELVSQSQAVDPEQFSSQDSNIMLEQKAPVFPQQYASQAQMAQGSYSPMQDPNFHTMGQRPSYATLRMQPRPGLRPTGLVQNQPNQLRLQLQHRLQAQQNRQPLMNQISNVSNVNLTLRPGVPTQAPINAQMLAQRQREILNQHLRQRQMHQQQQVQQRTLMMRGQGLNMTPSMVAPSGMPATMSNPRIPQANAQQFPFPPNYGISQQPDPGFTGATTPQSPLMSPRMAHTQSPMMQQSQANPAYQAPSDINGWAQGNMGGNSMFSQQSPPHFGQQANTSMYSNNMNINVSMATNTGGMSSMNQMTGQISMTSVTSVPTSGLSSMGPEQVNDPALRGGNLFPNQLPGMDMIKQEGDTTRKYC

molecular target: Nuclear receptor coactivator 2 (Homo sapiens) (UniProt Q15596); assay: inhibition of GAL4-SRC2 driven luciferase reporter, primary screen, SRC2 inhibitor project, cell-based, luminescence (AID 651957); details: HEK293 GAL4-SRC2 luciferase reporter, at 9 µM, active compounds read high;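 note: 0% = DMSO treated cells and 100% = cells given Gossypol at 36 µM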

Row | SMILES | inhibition
1 | NC(=O)c1cc([N+](=O)[O-])cc([N+](=O)[O-])c1N | inactive: -18.8%
2 | Cc1ccc(N/C(=N/P(=O)(N2CCOCC2)N2CCOCC2)N2CCOCC2)cc1 | inactive: -1.29%
3 | CN(C(=O)Cc1ccc(Cl)c(Cl)c1)[C@H]1CCCC[C@H]1N1CCCC1 | inactive: -5.15%
4 | Cc1ccc(OP(=O)(Nc2nccs2)Oc2ccc(C)cc2)cc1 | inactive: 5.1%
5 | COc1ccccc1OP(=O)(Nc1ccc(C)cn1)Oc1ccccc1OC | inactive: -16.4%
6 | Clc1ccc(Cl)c(NC2=NCC(CBr)S2)c1 (centres undefined) | inactive: 1.04%
7 | CN1CCCC(OC(=O)C(c2ccccc2)c2ccccc2)C1 (centres undefined) | inactive: -16.8%
8 | CC(C)CC(=O)NC(Sc1ccc(Cl)cc1)C(Cl)(Cl)Cl (centres undefined) | inactive: 6.25%
9 | Nc1cc(N)c2nonc2c1[N+](=O)[O-] | inactive: -49.7%
10 | O=C(NC(Sc1ccncn1)C(Cl)(Cl)Cl)c1ccccc1 (centres undefined) | inactive: 1.19%
11 | Oc1ccccc1CNc1ccccn1 | inactive: 12.7%
12 | COc1ccc(C2=NCC(CBr)S2)cc1 (centres undefined) | inactive: -3.62%
13 | O=[N+]([O-])c1cccc2n[nH]nc12 | inactive: -19.4%
14 | CC(=O)N1C2C3N(C(C)=O)C1C1N(C(C)=O)C(C(N1C(C)=O)N3C(C)=O)N2C(C)=O | inactive: 0.11%
15 | CCc1nc2c(n1)c1c(non1O)c1c2no[n+]1[O-] | inactive: -33.9%
16 | O=[N+]([O-])c1cc([N+](=O)[O-])c(CCNc2ccccc2)c([N+](=O)[O-])c1 | inactive: 31%
17 | Cc1ccc(NP(=O)(Oc2ccccc2)Oc2ccccc2)nc1 | inactive: -8.91%
18 | C[N+]1=C2C=CC=CC=C2SC12C([N+](=O)[O-])=CC([N+](=O)[O-])=C[C-]2[N+](=O)[O-] (centres undefined) | active: 91.7%
19 | Nc1ccc([As](=O)(O)c2ccc(N)cc2)cc1 | inactive: 26.9%
20 | CCN(/C(=N/P(=O)(N1CCOCC1)N1CCOCC1)N1CCOCC1)c1ccc(OC)cc1 | inactive: -10.1%
21 | CN(C)C(=O)OCCc1n(C)cc[n+]1C | inactive: -23.4%
22 | CC(C)=N/N=C(\N)N[N+](=O)[O-] | inactive: -21.6%
23 | CC(C)c1nc(Nc2ccccc2)n(P(=O)(N(C)C)N(C)C)n1 | inactive: -16.3%
24 | c1cc(-c2nn[nH]n2)ccc1-c1nn[nH]n1 | inactive: -6.79%
25 | CC1CCN(C(=O)Oc2c(Cl)cc(Cl)c3cccnc23)CC1 | inactive: -27.6%

Row | SMILES | inhibition
26 | O=P1(N(CCCl)CCCl)OCCCS1 (centres undefined) | inactive: 1.3%
27 | O=C(Nc1cc([As](=O)(O)O)ccc1O)c1ccccc1 | inactive: 7.25%
28 | CC(C)(C)C(=O)NC(Sc1ccncn1)C(Cl)(Cl)Cl (centres undefined) | inactive: 9.77%
29 | O=[N+]([O-])c1ncn(CCn2ncnc2[N+](=O)[O-])n1 | inactive: -9.96%
30 | O=[N+]([O-])c1cccc(NC2=NCC(CBr)S2)c1 (centres undefined) | inactive: -8.33%
31 | COC(=O)C1(C)COP(=O)(Nc2ccccc2)OC1 (centres undefined) | inactive: 6.13%
32 | O=C(O)CNc1ccc([As](=O)(O)O)cc1 | inactive: 1.04%
33 | Nc1ccc(CCCCOc2ccccc2)cc1 | inactive: -8.62%
34 | COc1ccc(N)c([N+](=O)[O-])c1[N+](=O)[O-] | inactive: -24.5%
35 | O=P(Nc1ccccn1)(c1ccc(Br)cc1)c1ccc(Br)cc1 | inactive: -22.3%
36 | CN(C)C1(CNC(=O)c2ccc(Cl)c(S(N)(=O)=O)c2)CCCCC1 | inactive: 16.7%
37 | C[C@H]1OP(=O)(Oc2ccccc2)[C@H](O)[C@H](O)[C@H]1N=[N+]=[N-] (some centres undefined) | inactive: 1.03%
38 | O=P(Nc1nc2ccccc2s1)(c1ccccc1)c1ccccc1 | inactive: 5.74%
39 | O=[N+]([O-])c1ncn(CCn2cnc([N+](=O)[O-])n2)n1 | inactive: 15.6%
40 | CC(=O)NC(SC(=S)N(C)C)C(Cl)(Cl)Cl (centres undefined) | inactive: -16.3%
41 | O=[As](O)(c1ccccc1)c1ccc(O)cc1 | inactive: -13.6%
42 | Nc1ccc([As](=O)(O)c2ccc([N+](=O)[O-])cc2)cc1 | inactive: -5.01%
43 | C(Cc1nn[nH]n1)Cc1nn[nH]n1 | inactive: -12.2%
44 | C/C(N)=N\P(=O)(OCc1ccccc1)OCc1ccccc1 | inactive: 12.6%
45 | O=C(OC1CN2CCC1CC2)c1cccc(Cl)c1 (centres undefined) | inactive: 15%
46 | CC(C)C(=O)NC(Sc1ccccc1)C(Cl)(Cl)Cl (centres undefined) | inactive: -6.32%
47 | O=P(Nc1nccs1)(c1ccccc1)c1ccccc1 | inactive: 6.92%
48 | c1nnnn1CCn1cnnn1 | inactive: -3.72%
49 | CCOc1ccc(C2=NCC(CBr)S2)cc1 (centres undefined) | inactive: -22%
50 | O=P1(Nc2nc3ccc(Cl)cc3s2)COc2ccccc2O1 (centres undefined) | inactive: -24.8%

Row | SMILES | inhibition
51 | CCc1cc(O)c([N+](=O)[O-])c(C)c1[N+](=O)[O-] | inactive: -0.58%
52 | CC(C)(C)C(=O)NC(Sc1ccccc1)C(Cl)(Cl)Cl (centres undefined) | inactive: -23.8%
53 | COC(=O)C1(C)COP(=O)(NCc2ccccc2)OC1 (centres undefined) | inactive: -33.6%
54 | N#C/C(=C\c1ccc(N(CCBr)CCBr)cc1)C(N)=O | inactive: -22.6%
55 | CC(=O)c1ccc(N2CC2c2ccncc2)cc1 (centres undefined) | inactive: -2.44%
56 | C[C@@H]1C=CCP(=O)(Oc2ccccc2)O1 (some centres undefined) | inactive: -10.1%
57 | C[C@H]1OP(=O)(Oc2ccccc2)C[C@@H]2O[C@@H]21 (some centres undefined) | inactive: 2.33%
58 | Cc1ccccc1CN(C)C(=O)COC(=O)C(O)(c1ccccc1)c1ccccc1 | inactive: -6.48%
59 | CC(=O)Nc1ccc(Oc2c([N+](=O)[O-])cc([N+](=O)[O-])cc2[N+](=O)[O-])cc1 | inactive: -19.5%
60 | CC(=O)Nc1ccc([As](=O)(O)O)c(O)c1 | inactive: 11.9%
61 | CCNC(=S)/N=C(\N)N[N+](=O)[O-] | inactive: -9.05%
62 | O=C(NC1CCS(=O)(=O)C1)NP(=S)(Oc1ccccc1)Oc1ccccc1 (centres undefined) | inactive: 9.09%
63 | Cc1ccc(NP(=O)(Oc2cccc(C)c2)Oc2cccc(C)c2)nc1 | inactive: -27.1%
64 | c1ccc(-c2nn[nH]n2)c(-c2nn[nH]n2)c1 | inactive: 5.34%
65 | O=P1(N(CCCl)CCCl)OCCC2CCCCN21 (centres undefined) | inactive: -17.3%
66 | Cc1ccc(OP(=O)(Nc2ccccn2)Oc2ccc(C)cc2)cc1 | inactive: -32.3%
67 | CC(=O)NC(SC(=S)N(CC(C)C)CC(C)C)C(Cl)(Cl)Cl (centres undefined) | inactive: -16.1%
68 | COC(=O)c1cc2c(s1)N=C(c1ccccc1)N(C)P2(=O)N1CCOCC1 (centres undefined) | inactive: -11.4%
69 | CCC(=O)N1C2C3N(C(=O)CC)C1C1N(C(=O)CC)C(C(N1C(=O)CC)N3C(=O)CC)N2C(=O)CC | inactive: -3.7%
70 | O=C(OC1CN2CCC1CC2)c1ccccc1 (centres undefined) | inactive: 5.91%
71 | CN(C)C(=O)Oc1noc2ccccc12 | inactive: 17.4%
72 | O=c1c2cc([N+](=O)[O-])ccc2[nH]c2c([N+](=O)[O-])cc([N+](=O)[O-])cc12 | inactive: -42%
73 | Cc1ccccc1OP(=O)(Nc1ccccn1)Oc1ccccc1C | inactive: 2.81%
74 | CC(NC(=O)COC(=O)C(O)(c1ccccc1)c1ccccc1)c1ccccc1 (centres undefined) | inactive: -21.4%
